# Test results as given in paper PMC11310081, “Deep-learning-enabled antibiotic discovery through molecular de-extinction” (Nature Biomedical Engineering, 2024).
# Assays:
# E. coli AIC221 = assay type: cell-based, Escherichia coli; details: AIC221, 20 h
# From the text: (§1) The following Gram-negative bacteria were used in our study: A. baumannii ATCC 19606, E. coli ATCC 11775, E. coli AIC221 (E. coli MG1655 phnE_2::FRT), E. coli AIC222 (E. coli MG1655 pmrA53 phnE_2::FRT (colistin resistant)), K. pneumoniae ATCC 13883, P. aeruginosa PAO1 and P. aeruginosa PA14. The following Gram-positive bacteria were also used in our study: S. aureus ATCC 12600, S. aureus ATCC BAA-1556 (methicillin-resistant strain), E. faecalis ATCC 700802 (vancomycin-resistant strain) and E. faecium ATCC 700221 (vancomycin-resistant strain). Bacteria were grown from frozen stocks and plated on Luria–Bertani (LB) or Pseudomonas isolation agar plates (P. aeruginosa strains) and incubated overnight at 37 °C. After the incubation period, a single colony was transferred to 5 ml of LB medium, and cultures were incubated overnight (16 h) at 37 °C. The following day, an inoculum was prepared by diluting the overnight cultures 1:100 in 5 ml of the respective media and incubating them at 37 °C until bacteria reached logarithmic phase (OD600 = 0.3–0.5).
# (§2) The in vitro antimicrobial activity of the peptides was assessed by using the broth microdilution assay. […] Aqueous solutions of the peptides were added to the plate at concentrations ranging from 1 to 64 μmol l^−1. […] The optical density of the plates was measured at 600 nm using a spectrophotometer. […]
# [1] = system: E. faecium ATCC 700221 (vancomycin-resistant strain); assay type: cell-based, Enterococcus faecium; details: ATCC 700221, 20 h
# From the text: as §1, §2
# A. baumannii ATCC 19606 [2] = assay: Neutropenic thigh infection mouse model; assay type: in vivo; details: neutropenic CD-1 mice
# Experimental: Six-week-old female CD-1 mice from Charles River (stock number 18679700-022) were rendered neutropenic by two doses of cyclophosphamide (150 mg kg^−1) applied intraperitoneally with an interval of 72 h. One day after the last dose of cyclophosphamide, the mice were injected intramuscularly in their right thigh with a bacterial load of 10^6 c.f.u. ml^−1 of A. baumannii ATCC 19606 cells. The bacteria had been grown in LB broth, washed twice with PBS (pH 7.4), and resuspended to the desired concentration. Two hours after bacterial injection, peptides resuspended in water were administered intraperitoneally, and the untreated mice were inoculated with the same volume of deionized water. Before each injection, mice were anaesthetized with isoflurane and monitored for respiratory rate and pedal reflexes. Next, we monitored the establishment of the infection and euthanized the mice. The infected area was excised 2 days and 4 days post infection, homogenized using a bead beater for 20 min (25 Hz), and then serially diluted tenfold for quantification of colony-forming units in MacConkey agar plates. The experiments were performed with six mice per group. All experiments were performed blindly, and no animal subjects were excluded from the analysis. The thigh infection mouse model was approved by the University Laboratory Animal Resources from the University of Pennsylvania (protocol 807055). Statistical significance was determined using one-way ANOVA followed by Dunnett’s test in log10-transformed data to mitigate the effect of outliers; P values are presented for each group, with all groups being compared to the untreated control group.
# P. aeruginosa PA14 = assay type: cell-based, Pseudomonas aeruginosa; details: PA14, 20 h
# From the text: as §1, §2
# A. baumannii ATCC 19606 [3] = assay: Skin abscess infection mouse model; assay type: in vivo, CD-1 mice; details: for bacterial count, skin abscess (Panel 6b): CD-1 mice
# Experimental: A. baumannii ATCC 19606 cells were grown in LB medium to an OD600 = 0.5. Cells were washed twice with sterile phosphate-buffered saline (PBS) (pH 7.4, 13,000 r.p.m. for 2 min) and resuspended to a final concentration of 10^6 (A. baumannii cells) colony-forming units per millilitre (c.f.u. ml^−1). Six-week-old female CD-1 mice from Charles River (stock number 18679700-022) were anaesthetized with isoflurane, and their backs were sterilized and shaved. A superficial linear skin abrasion was made with a needle to damage the stratum corneum and upper layer of the epidermis. An aliquot of 20 μl containing the bacterial load resuspended in PBS was inoculated over the scratched area. Two hours after the infection, peptides diluted in water at their MIC value were administered to the infected area, and the untreated mice were inoculated with the same volume of deionized water. Mice were euthanized, and the area of scarified skin was excised 2 days and 4 days post infection, homogenized using a bead beater for 20 min (25 Hz) and then serially diluted tenfold for quantification of colony-forming units. This quantitative method was used as it has been established to accurately reflect the number of bacteria present in a given infected area. MacConkey agar plates were used as A. baumannii colonies appear purple in this medium and can easily be distinguished from other strains. The experiments were performed with six mice per group. All experiments were performed blindly, and no animal subjects were excluded from the analysis. The skin abscess infection mouse model was approved by the University Laboratory Animal Resources from the University of Pennsylvania (protocol 806763). Statistical significance was determined using one-way analysis of variance (ANOVA) followed by Dunnett’s test in log10-transformed data to mitigate the effect of outliers; P values are presented for each group, with all groups being compared to the untreated control group.
# [4] = A. baumannii ATCC 19606, day 2, replicate 1
# [5] = A. baumannii ATCC 19606, day 2, replicate 2
# [6] = A. baumannii ATCC 19606, day 2, replicate 3
# [7] = A. baumannii ATCC 19606, day 2, replicate 4
# [8] = A. baumannii ATCC 19606, day 2, replicate 5
# [9] = A. baumannii ATCC 19606, day 2, replicate 6
# [10] = A. baumannii ATCC 19606, day 4, replicate 1
# [11] = A. baumannii ATCC 19606, day 4, replicate 2
# [12] = A. baumannii ATCC 19606, day 4, replicate 3
# [13] = A. baumannii ATCC 19606, day 4, replicate 4
# [14] = A. baumannii ATCC 19606, day 4, replicate 5
# [15] = A. baumannii ATCC 19606, day 4, replicate 6
smiles,measurement,setting,value
CC[C@H](C)[C@H](NC(=O)[C@H](CC(N)=O)NC(=O)[C@H](CCCCN)NC(=O)[C@H](CCCNC(=N)N)NC(=O)[C@H](Cc1ccccc1)NC(=O)[C@@H](NC(=O)[C@H](CC(C)C)NC(=O)[C@H](CCCNC(=N)N)NC(=O)[C@H](CCCNC(=N)N)NC(=O)CNC(=O)[C@H](CCCNC(=N)N)NC(=O)[C@H](C)NC(=O)[C@H](CCCNC(=N)N)NC(=O)[C@@H](NC(=O)[C@H](CC(C)C)NC(=O)[C@H](CO)NC(=O)[C@H](Cc1ccc(O)cc1)NC(=O)[C@@H](NC(=O)[C@H](CCCNC(=N)N)NC(=O)[C@H](CS)NC(=O)[C@H](Cc1ccc(O)cc1)NC(=O)[C@@H](N)CC(C)C)[C@@H](C)CC)C(C)C)[C@@H](C)O)C(=O)N[C@@H](CO)C(=O)N[C@@H](CCCCN)C(=O)O [Hydrodamin-1],"Minimal inhibitory concentration, E. coli AIC221",E. coli AIC221,16 µM
same,"Minimal inhibitory concentration, E. faecium ATCC700221-VRE",[1],4 µM
same,"bacterial count, thigh infection (Panel 6d)",A. baumannii ATCC 19606 [2]; [4],2.0e+008
same,"bacterial count, thigh infection (Panel 6d)",A. baumannii ATCC 19606 [2]; [5],4.0e+009
same,"bacterial count, thigh infection (Panel 6d)",A. baumannii ATCC 19606 [2]; [6],1.0e+010
same,"bacterial count, thigh infection (Panel 6d)",A. baumannii ATCC 19606 [2]; [7],1.4e+010
same,"bacterial count, thigh infection (Panel 6d)",A. baumannii ATCC 19606 [2]; [8],2.0e+008
same,"bacterial count, thigh infection (Panel 6d)",A. baumannii ATCC 19606 [2]; [9],4.0e+008
same,"bacterial count, thigh infection (Panel 6d)",A. baumannii ATCC 19606 [2]; [10],1.2e+007
same,"bacterial count, thigh infection (Panel 6d)",A. baumannii ATCC 19606 [2]; [11],6000000
same,"bacterial count, thigh infection (Panel 6d)",A. baumannii ATCC 19606 [2]; [12],6.0e+007
same,"bacterial count, thigh infection (Panel 6d)",A. baumannii ATCC 19606 [2]; [13],8.0e+007
same,"bacterial count, thigh infection (Panel 6d)",A. baumannii ATCC 19606 [2]; [14],6000000
same,"bacterial count, thigh infection (Panel 6d)",A. baumannii ATCC 19606 [2]; [15],8000000
same,"Minimal inhibitory concentration, P. aeruginosa PA14",P. aeruginosa PA14,16 µM
same,"bacterial count, skin abscess (Panel 6b)",A. baumannii ATCC 19606 [3]; [4],4e+007
same,"bacterial count, skin abscess (Panel 6b)",A. baumannii ATCC 19606 [3]; [5],2e+007
same,"bacterial count, skin abscess (Panel 6b)",A. baumannii ATCC 19606 [3]; [6],1e+009
same,"bacterial count, skin abscess (Panel 6b)",A. baumannii ATCC 19606 [3]; [7],1e+009
same,"bacterial count, skin abscess (Panel 6b)",A. baumannii ATCC 19606 [3]; [8],4e+008
same,"bacterial count, skin abscess (Panel 6b)",A. baumannii ATCC 19606 [3]; [9],4e+008
same,"bacterial count, skin abscess (Panel 6b)",A. baumannii ATCC 19606 [3]; [10],800000
same,"bacterial count, skin abscess (Panel 6b)",A. baumannii ATCC 19606 [3]; [11],800000
same,"bacterial count, skin abscess (Panel 6b)",A. baumannii ATCC 19606 [3]; [12],1400000
same,"bacterial count, skin abscess (Panel 6b)",A. baumannii ATCC 19606 [3]; [13],600000
same,"bacterial count, skin abscess (Panel 6b)",A. baumannii ATCC 19606 [3]; [14],200000
same,"bacterial count, skin abscess (Panel 6b)",A. baumannii ATCC 19606 [3]; [15],200000
same,"Anti-infective activity in skin abscess model, in words","A. baumannii ATCC 19606 [3]; single dose at MIC, compared with untreated control and polymyxin B, n = 6",inhibited the proliferation of the infection for up to 4 days after treatment
same,"Reduction of bacterial load, 2 days","A. baumannii ATCC 19606 [3]; skin abscess, mice, single dose at MIC over infected area 2 h after infection, 2 days post infection, n = 6",not active during the first 2 days post infection
same,"Reduction of bacterial load, 4 days","A. baumannii ATCC 19606 [3]; skin abscess, mice, single dose at MIC over infected area, 4 days post infection, n = 6",showed activity by day 4
